Test: Water solubility comparison
Type: physicochemical

manganese (II) chelate of N-pyridoxyl, N′-(pyridoxyl-5-phosphate)-ethylenediamine-N—N′-diacetic acid [MnDPMP]
water solubility (comparison): higher water solubility than MnPLED

Reference: US10869938B2, “Magnetic resonance imaging” (1C TARGETS AS, priority 2007, dated 2020)
